A short description of test [1]: NCI Yeast Anticancer Drug Screen. Data for the rad50 strain (AID 155).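 Note: 0% = growth of vehicle-only cultures of the same strain.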 To be noted: S. cerevisiae rad50 strain growth inhibition, hits give high values.
A short description of test [2]: NCI Yeast Anticancer Drug Screen. Data for the mec2-1 strain (AID 157). To be noted: S. cerevisiae mec2-1 strain, hits give high values.
Test [3] in a line: NCI Yeast Anticancer Drug Screen. Data for the sgs1 mgt1 strain (AID 161).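 Note: 0% = growth of cultures given vehicle only.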 To be noted: S. cerevisiae sgs1 mgt1 strain, hits give high values.
Test [4] is described as follows: NCI Yeast Anticancer Drug Screen. Data for the cln2 rad14 strain (AID 165).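 Note: 0% = growth equal to vehicle treated cultures.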 To be noted: S. cerevisiae cln2 rad14 strain, hits give high values.
Test [5] is described as follows: NCI Yeast Anticancer Drug Screen. Data for the bub3 strain (AID 167). Conditions: S. cerevisiae bub3 mutant strain, hits give high values.
The nature of test [6]: NCI Yeast Anticancer Drug Screen. Data for the wt2 strain (AID 169).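 Note: 0% = growth of vehicle-treated yeast cultures.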 Conditions: S. cerevisiae wt2 strain growth inhibition, hits give high values. In short, it runs like this:
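Against vehicle-treated controls, the growth of yeast exposed to each compound was compared, and the inhibition was recorded.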

Test [7] is described as follows: NCI Yeast Anticancer Drug Screen. Data for the mlh1 rad18 strain (AID 175). To be noted: S. cerevisiae mlh1 rad18 strain growth inhibition, hits give high values.
[8] abbreviates: at 5.0 µM (retest, dose inferred, filed as 0.5).
[9] abbreviates: at 50.0 µM (retest, dose inferred, filed as 5.0).

Each structure is given as a SMILES string. The list shows a part of the results, in another mix than the full data. Some structures have more than one record in an assay (separate samples or runs), and their calls can disagree. Calls of active or inactive are those of the source. Cut-off read from the data, not from the text of the source: active = growth inhibition above about 70%; inactive = the rest.

This note sets out measurements from PubChem BioAssay (NCI).

Turning to `Cc1cc2ccccc2cc1C.O=[N+]([O-])c1cc([N+](=O)[O-])cc([N+](=O)[O-])c1`, the growth inhibition in test [1] (at 1.2 µM) is inactive: -1%; in test [1] (at 3.7 µM) it was inactive: 1%; in test [1] (setting [8]), inactive: 9%; in test [1] (at 11.0 µM) it was inactive: 0%; in test [1] (at 33.0 µM), inactive: 12%; in test [1] (setting [9]), active: 99%. Further, the growth inhibition in test [1] (at 50.0 µM) is inactive: 11.1%; in test [1] (at 100.0 µM) it was active: 75%; in test [2] (at 1.2 µM), inactive: -2%; in test [2] (at 3.7 µM) it was inactive: 2%; in test [2] (setting [8]) it was inactive: 11%; in test [2] (at 11.0 µM), inactive: 7%. For the same molecule, the growth inhibition in test [2] (at 33.0 µM) was inactive: 25%; in test [2] (setting [9]), active: 99%; in test [2] (at 50.0 µM), inactive: 65.5%; in test [2] (at 100.0 µM), active: 82%; in test [3] (setting [8]), inactive: 29%; in test [3] (setting [9]), active: 99%. In addition, the growth inhibition in test [3] (at 50.0 µM) was active: 77.5%; in test [4] (setting [8]), inactive: -6%; in test [4] (setting [9]), active: 99%; in test [4] (at 50.0 µM), active: 79.5%; in test [5] (at 1.2 µM) it was inactive: -4%; in test [5] (at 3.7 µM), inactive: -2%. In addition, the growth inhibition is inactive: 5% in test [5] (setting [8]); inactive: -2% in test [5] (at 11.0 µM); inactive: 11% in test [5] (at 33.0 µM); active: 99% in test [5] (setting [9]); active: 93.3% in test [5] (at 50.0 µM); active: 71% in test [5] (at 100.0 µM). In addition, the growth inhibition was inactive: -1% in test [6] (at 1.2 µM); inactive: 1% in test [6] (at 3.7 µM); inactive: 2% in test [6] (at 11.0 µM); inactive: 10% in test [6] (at 33.0 µM); active: 72% in test [6] (at 100.0 µM); inactive: 15% in test [7] (setting [8]). The growth inhibition in test [7] (setting [9]) is active: 99%; in test [7] (at 50.0 µM), active: 78.1%.
Take `CCN(CC)CCOC(=O)C(O)(c1ccccc1)c1c(C)cccc1C` (stereo unspecified): the growth inhibition was inactive: -1% in test [1] (setting [8]); inactive: -4% in test [1] (setting [9]); inactive: 32.6% in test [1] (at 50.0 µM); inactive: 4% in test [2] (setting [8]); inactive: 15% in test [2] (setting [9]); inactive: 21.1% in test [2] (at 50.0 µM). In addition, the growth inhibition in test [3] (setting [8]) is inactive: -5%; in test [3] (setting [9]), inactive: -17%; in test [3] (at 50.0 µM) it was inactive: 55.5%; in test [4] (setting [8]), inactive: -2%; in test [4] (setting [9]) it was inactive: -1%; in test [4] (at 50.0 µM), inactive: 14.3%. Further, the growth inhibition in test [5] (setting [8]) is inactive: -4%; in test [5] (setting [9]), inactive: -2%; in test [5] (at 50.0 µM), inactive: 17.1%; in test [7] (setting [8]), inactive: 11%; in test [7] (setting [9]), inactive: -8%; in test [7] (at 50.0 µM), inactive: 59.8%.
With `O=C(Cl)c1c([N+](=O)[O-])cc([N+](=O)[O-])cc1[N+](=O)[O-]`, the growth inhibition in test [1] (setting [8]) is inactive: 9%; in test [1] (setting [9]), active: 94%; in test [1] (at 50.0 µM), active: 99.5%; in test [2] (setting [8]), inactive: 14%; in test [2] (setting [9]), active: 98%; in test [2] (at 50.0 µM), active: 98.8%. Moreover, the growth inhibition in test [3] (setting [8]) is inactive: 20%; in test [3] (setting [9]), active: 95%; in test [3] (at 50.0 µM), active: 99%; in test [4] (setting [8]), inactive: -16%; in test [4] (setting [9]) it was inactive: 44%; in test [4] (at 50.0 µM), active: 91.7%. For the same molecule, the growth inhibition in test [5] (setting [8]) is inactive: 1%; in test [5] (setting [9]) it was active: 98%; in test [5] (at 50.0 µM), active: 98.7%; in test [7] (setting [8]), inactive: 18%; in test [7] (setting [9]), active: 98%; in test [7] (at 50.0 µM), active: 99.5%.
On to `CCCCCCCCCCCCCCC[C@@H]1C[N+](C)(C)CCO[P@@](C)(=O)O1`, for which the growth inhibition in test [1] (setting [8]) was inactive: 47%; in test [1] (setting [9]), active: 98%; in test [1] (at 50.0 µM), active: 91.1%; in test [2] (setting [8]), inactive: 34%; in test [2] (setting [9]) it was active: 99%; in test [2] (at 50.0 µM), active: 92.8%. Besides, the growth inhibition in test [3] (setting [8]) was active: 90%; in test [3] (setting [9]), active: 83%; in test [3] (at 50.0 µM), active: 90%; in test [4] (setting [8]), active: 85%; in test [4] (setting [9]), active: 75%; in test [4] (at 50.0 µM) it was active: 89.7%. The growth inhibition was active: 94% in test [5] (setting [8]); active: 85% in test [5] (setting [9]); active: 85.9% in test [5] (at 50.0 µM); active: 70% in test [7] (setting [8]); active: 98% in test [7] (setting [9]); active: 92.3% in test [7] (at 50.0 µM).
Take `O=[N+]([O-])C(F)(COCC(O)CO)[N+](=O)[O-]` (stereo unspecified): the growth inhibition was inactive: -7% in test [1] (at 1.2 µM); inactive: 0% in test [1] (at 3.7 µM); inactive: 19% in test [1] (setting [8]); inactive: 31% in test [1] (at 11.0 µM); inactive: 67% in test [1] (at 33.0 µM); active: 81% in test [1] (setting [9]). Also, the growth inhibition is inactive: 70% in test [1] (at 50.0 µM); active: 88% in test [1] (at 100.0 µM); inactive: -11% in test [2] (at 1.2 µM); inactive: -19% in test [2] (at 3.7 µM); inactive: -6% in test [2] (setting [8]); inactive: -11% in test [2] (at 11.0 µM). In addition, the growth inhibition in test [2] (at 33.0 µM) is inactive: 41%; in test [2] (setting [9]), inactive: 53%; in test [2] (at 50.0 µM), inactive: 35.7%; in test [2] (at 100.0 µM), active: 92%; in test [3] (setting [8]), inactive: 34%; in test [3] (setting [9]) it was active: 86%. The growth inhibition in test [3] (at 50.0 µM) was active: 83.1%; in test [4] (setting [8]), inactive: 5%; in test [4] (setting [9]), inactive: 64%; in test [4] (at 50.0 µM), inactive: 63%; in test [5] (at 1.2 µM), inactive: -44%; in test [5] (at 3.7 µM), inactive: -30%. The growth inhibition in test [5] (setting [8]) was inactive: 1%; in test [5] (at 11.0 µM) it was inactive: -40%; in test [5] (at 33.0 µM), inactive: 23%; in test [5] (setting [9]), inactive: 65%; in test [5] (at 50.0 µM) it was inactive: 42.3%; in test [5] (at 100.0 µM), active: 84%. The growth inhibition in test [7] (setting [8]) is inactive: 44%; in test [7] (setting [9]) it was active: 87%; in test [7] (at 50.0 µM), active: 71.3%.
Regarding `C[S+](C)C1CCCCCCC1Br.O=[N+]([O-])c1cc([N+](=O)[O-])c(S(=O)(=O)[O-])c([N+](=O)[O-])c1`, the growth inhibition in test [1] (setting [8]) is inactive: 4%; in test [1] (setting [9]), inactive: 21%; in test [1] (at 50.0 µM) it was inactive: 48.5%; in test [2] (setting [8]), inactive: 17%; in test [2] (setting [9]), inactive: 54%; in test [2] (at 50.0 µM) it was inactive: 23.8%. The growth inhibition in test [3] (setting [8]) was inactive: -7%; in test [3] (setting [9]), inactive: 35%; in test [3] (at 50.0 µM) it was active: 73.5%; in test [4] (setting [8]) it was inactive: -9%; in test [4] (setting [9]), inactive: 21%; in test [4] (at 50.0 µM), inactive: 49%. For the same molecule, the growth inhibition is inactive: 12% in test [5] (setting [8]); inactive: 43% in test [5] (setting [9]); inactive: 43.1% in test [5] (at 50.0 µM); inactive: 24% in test [7] (setting [8]); inactive: 49% in test [7] (setting [9]); inactive: 43.5% in test [7] (at 50.0 µM).
As to `O=[N+]([O-])C1([N+](=O)[O-])CCCc2nonc21`, the growth inhibition in test [1] (setting [8]) was inactive: 21%; in test [1] (setting [9]), inactive: 53%; in test [1] (at 50.0 µM), active: 90.3%; in test [2] (setting [8]), inactive: 7%; in test [2] (setting [9]) it was inactive: 32%; in test [2] (at 50.0 µM), active: 71%. The growth inhibition in test [3] (setting [8]) is inactive: 22%; in test [3] (setting [9]), inactive: 58%; in test [3] (at 50.0 µM) it was active: 91.8%; in test [4] (setting [8]), inactive: 16%; in test [4] (setting [9]), inactive: 44%; in test [4] (at 50.0 µM), active: 83%. Besides, the growth inhibition was inactive: 4% in test [5] (setting [8]); inactive: 39% in test [5] (setting [9]); active: 86.4% in test [5] (at 50.0 µM); inactive: 25% in test [7] (setting [8]); inactive: 55% in test [7] (setting [9]); active: 89.3% in test [7] (at 50.0 µM).
